{
  "source": "paper PMC9181987",
  "about": "“Disclosing the Potential of Fluorinated Ionic Liquids as Interferon-Alpha 2b Delivery Systems” (Nanomaterials, 2022)",
  "key": {"IFN-α 2b": {"molecular_target": "T1, IFN-α 2b (Homo sapiens, UniProt P01563)", "T1 construct": "purchased Sigma-Aldrich SRP4595; host or cells: E. coli", "design": "method as in ref 62 = [62]; 62. Nikolaiev R. Stepanenko Y. Chernykh S. Melnichuk N. Tkachuk Z. Conformational, Fluorescence and Energy Parameters of Interferon A2b with Different Forms of Oligoribonucleotides and Adenosine Monop", "conditions": "cited from earlier work"}, "[1]": {"experiment": "Dynamic light scattering: aggregate size and polydispersity index", "type": "physicochemical", "conditions": "50 μg/mL IFN-α 2b; 150 mM NaH2PO4; 25°C", "protocol": "These concentrations were chosen to comprise two different aggregates of each FIL, above the 1st CAC and the 3rd CAC. […] Therefore, 20 μL was transferred into a quartz cell of 10 mm pathlength and measured at 25 °C.\nMoreover, the polydispersity index (PdI) was obtained by DLS which determines the heterogeneity of the sample in the function of the size."}, "[2]": {"experiment": "STEM/TEM images: aggregate size", "type": "physicochemical", "conditions": "IFN-α 2b at 0.0001 μg/mL; 150 mM NaH2PO4 pH 7.4"}},
  "data": [
    {"substance": "IFN-α 2b: Interferon-alpha 2b, human recombinant, SRP4595, expressed in E. coli; therapeutic protein", "values": [
      {"measurement": "unquenched lifetime τ0", "setting": "IFN-α 2b", "value": "approximately 2.95 × 10^−9 s"},
      {"measurement": "Polydispersity index (PdI)", "setting": "[1]", "value": 0.427},
      {"measurement": "aggregate size, TEM image", "setting": "[2]", "value": "≤ 2", "unit": "μm"}
    ]}
  ]
}
